Legend:
[1] = biological target: [3H]-norepinephrine reuptake (Rattus norvegicus, UniProt Q63380); test: In vitro functional inhibition of [3H]-norepinephrine reuptake, hypothalamus synaptosomes; format: biochemical; settings: read-out: Noradrenaline inhibition pIC50 (converted)
[3H]-dopamine reuptake = [3H]-dopamine reuptake (Rattus norvegicus, UniProt P23977); test: In vitro functional inhibition of [3H]-dopamine reuptake, striatum synaptosomes; format: biochemical; settings: read-out: Dopamine inhibition pIC50 (converted)
dopamine reuptake sites = dopamine reuptake sites (Homo sapiens, UniProt Q01959); test: In vitro affinity for dopamine reuptake sites; settings: read-out: Dopamine binding pKi (converted)
[2] = biological target: norepinephrine reuptake sites (Homo sapiens, UniProt P23975); test: In vitro affinity for norepinephrine reuptake sites; settings: read-out: Noradrenaline binding pKi (converted)
serotonin reuptake sites = serotonin reuptake sites (Homo sapiens, UniProt P31645); test: In vitro affinity for serotonin reuptake sites

The chains behind the UniProt entries cited, without tags or fusion partners. Residues count along the entry.
UniProt Q63380, 1-617: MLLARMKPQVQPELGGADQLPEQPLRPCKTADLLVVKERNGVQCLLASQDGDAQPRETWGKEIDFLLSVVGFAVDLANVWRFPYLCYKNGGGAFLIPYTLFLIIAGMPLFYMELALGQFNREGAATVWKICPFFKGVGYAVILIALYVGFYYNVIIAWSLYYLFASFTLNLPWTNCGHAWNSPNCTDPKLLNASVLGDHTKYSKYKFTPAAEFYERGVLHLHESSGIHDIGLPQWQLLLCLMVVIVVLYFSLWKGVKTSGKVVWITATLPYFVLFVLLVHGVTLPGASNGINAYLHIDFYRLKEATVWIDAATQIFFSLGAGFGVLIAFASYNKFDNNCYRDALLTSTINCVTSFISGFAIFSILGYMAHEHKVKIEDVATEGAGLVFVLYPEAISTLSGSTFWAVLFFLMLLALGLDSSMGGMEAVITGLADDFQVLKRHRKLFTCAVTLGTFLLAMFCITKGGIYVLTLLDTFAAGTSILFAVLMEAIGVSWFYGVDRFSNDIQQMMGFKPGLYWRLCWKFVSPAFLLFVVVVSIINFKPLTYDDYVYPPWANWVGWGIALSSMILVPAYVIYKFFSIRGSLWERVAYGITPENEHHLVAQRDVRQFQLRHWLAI
UniProt P23977, whole entry: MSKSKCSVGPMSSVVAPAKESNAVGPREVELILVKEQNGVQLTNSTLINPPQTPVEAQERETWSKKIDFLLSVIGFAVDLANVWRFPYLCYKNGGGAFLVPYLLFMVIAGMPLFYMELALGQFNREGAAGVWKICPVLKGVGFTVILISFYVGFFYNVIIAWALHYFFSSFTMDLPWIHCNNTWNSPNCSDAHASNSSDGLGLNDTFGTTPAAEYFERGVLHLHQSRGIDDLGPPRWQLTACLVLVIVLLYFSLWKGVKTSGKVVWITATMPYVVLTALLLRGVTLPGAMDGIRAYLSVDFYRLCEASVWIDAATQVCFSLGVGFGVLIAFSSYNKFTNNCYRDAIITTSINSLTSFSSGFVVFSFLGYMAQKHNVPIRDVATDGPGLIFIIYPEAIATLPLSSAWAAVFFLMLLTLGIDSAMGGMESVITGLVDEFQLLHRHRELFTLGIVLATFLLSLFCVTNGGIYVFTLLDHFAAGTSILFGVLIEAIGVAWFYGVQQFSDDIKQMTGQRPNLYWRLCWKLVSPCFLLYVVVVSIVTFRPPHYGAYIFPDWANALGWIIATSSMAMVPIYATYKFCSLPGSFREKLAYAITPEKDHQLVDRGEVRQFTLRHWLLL
UniProt Q01959, whole entry: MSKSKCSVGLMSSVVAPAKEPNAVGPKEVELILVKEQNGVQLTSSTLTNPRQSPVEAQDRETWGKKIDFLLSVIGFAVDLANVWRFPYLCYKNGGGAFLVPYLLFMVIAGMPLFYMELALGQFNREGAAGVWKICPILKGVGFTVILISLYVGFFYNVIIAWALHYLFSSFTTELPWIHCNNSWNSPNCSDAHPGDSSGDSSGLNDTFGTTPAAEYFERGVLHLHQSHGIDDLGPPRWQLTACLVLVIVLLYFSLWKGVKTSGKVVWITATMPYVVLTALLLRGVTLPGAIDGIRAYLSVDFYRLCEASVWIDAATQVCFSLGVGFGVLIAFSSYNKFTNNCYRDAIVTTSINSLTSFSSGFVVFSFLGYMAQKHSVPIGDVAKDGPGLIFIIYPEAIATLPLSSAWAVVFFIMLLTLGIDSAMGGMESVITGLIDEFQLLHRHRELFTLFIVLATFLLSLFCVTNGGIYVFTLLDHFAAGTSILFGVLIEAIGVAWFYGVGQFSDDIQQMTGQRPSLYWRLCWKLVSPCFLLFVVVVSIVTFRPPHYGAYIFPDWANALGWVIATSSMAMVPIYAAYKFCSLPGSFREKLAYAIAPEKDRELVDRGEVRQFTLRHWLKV
UniProt P23975, whole entry: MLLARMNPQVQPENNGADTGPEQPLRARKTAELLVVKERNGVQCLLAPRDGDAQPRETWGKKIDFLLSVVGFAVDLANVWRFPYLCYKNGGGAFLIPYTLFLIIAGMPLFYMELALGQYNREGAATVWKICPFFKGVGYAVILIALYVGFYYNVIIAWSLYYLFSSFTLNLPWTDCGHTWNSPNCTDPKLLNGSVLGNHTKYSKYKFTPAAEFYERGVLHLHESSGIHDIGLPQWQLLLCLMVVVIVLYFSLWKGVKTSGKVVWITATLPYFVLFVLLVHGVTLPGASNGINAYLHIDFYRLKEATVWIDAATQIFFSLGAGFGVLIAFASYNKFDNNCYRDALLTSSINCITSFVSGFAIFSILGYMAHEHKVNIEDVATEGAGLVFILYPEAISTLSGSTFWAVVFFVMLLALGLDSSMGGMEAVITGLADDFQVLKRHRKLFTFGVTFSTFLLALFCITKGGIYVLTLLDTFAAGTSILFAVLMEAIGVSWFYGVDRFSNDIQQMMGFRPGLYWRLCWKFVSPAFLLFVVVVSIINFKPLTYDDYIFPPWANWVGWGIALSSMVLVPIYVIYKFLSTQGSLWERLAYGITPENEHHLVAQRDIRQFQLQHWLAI
UniProt P31645, whole entry: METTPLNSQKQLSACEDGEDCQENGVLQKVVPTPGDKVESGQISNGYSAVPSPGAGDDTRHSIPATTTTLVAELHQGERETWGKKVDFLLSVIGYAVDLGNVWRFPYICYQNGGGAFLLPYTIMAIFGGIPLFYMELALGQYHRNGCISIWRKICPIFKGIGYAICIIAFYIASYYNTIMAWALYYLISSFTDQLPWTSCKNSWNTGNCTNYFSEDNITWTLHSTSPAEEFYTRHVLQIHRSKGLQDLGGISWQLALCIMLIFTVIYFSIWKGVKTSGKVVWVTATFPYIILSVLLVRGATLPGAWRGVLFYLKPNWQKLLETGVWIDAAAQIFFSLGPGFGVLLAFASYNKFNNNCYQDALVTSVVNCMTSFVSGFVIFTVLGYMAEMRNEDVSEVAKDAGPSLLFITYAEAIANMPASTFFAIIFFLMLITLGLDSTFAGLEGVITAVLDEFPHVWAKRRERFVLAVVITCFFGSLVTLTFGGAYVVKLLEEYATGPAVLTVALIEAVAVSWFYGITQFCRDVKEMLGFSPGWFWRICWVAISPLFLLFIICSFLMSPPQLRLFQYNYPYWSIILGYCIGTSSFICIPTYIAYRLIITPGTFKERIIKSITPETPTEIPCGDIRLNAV

Row | Structure (SMILES) | IC50 [1] [µM] | IC50 ([3H]-dopamine reuptake) [µM] | Ki (dopamine reuptake sites) [µM] | Ki [2] [µM] | Ki (serotonin reuptake sites) [µM]
1 | COc1ccc(C(CN(C)C)C2(O)CCCCC2)cc1 (racemic) [Venlafaxine, (R,S)-1-(2-(Dimethylamino)-1-(4-methoxyphenyl)ethyl)cyclohexanol] | 0.631 | 5.01 | – | – | –
2 | COc1ccc([C@H](CN(C)C)C2(O)CCCCC2)cc1 [reference compound] | – | 3.16 | – | – | –
3 | COc1ccc([C@@H](CN(C)C)C2(O)CCCCC2)cc1 [reference compound] | 0.794 | – | – | – | –
4 | CN(C)C[C@@H](c1ccc(O)cc1)C1(O)CCCCC1 [(R)—O-desmethyl-venlafaxine, O-desmethyl-R-Venlafaxine, reference compound] | – | – | 6.31 | 6.31 | 0.0251
5 | CN(C)C[C@H](c1ccc(O)cc1)C1(O)CCCCC1 [(S)—O-desmethyl-venlafaxine, O-desmethyl-S-Venlafaxine, reference compound] | – | – | 12.6 | 25.1 | 0.01
